In the test the target is D(2) dopamine receptor (Bos taurus, UniProt P20288).

Protein sequences, listed by entry. Tags and fused reporters are not part of them.
UniProt P20288, whole entry: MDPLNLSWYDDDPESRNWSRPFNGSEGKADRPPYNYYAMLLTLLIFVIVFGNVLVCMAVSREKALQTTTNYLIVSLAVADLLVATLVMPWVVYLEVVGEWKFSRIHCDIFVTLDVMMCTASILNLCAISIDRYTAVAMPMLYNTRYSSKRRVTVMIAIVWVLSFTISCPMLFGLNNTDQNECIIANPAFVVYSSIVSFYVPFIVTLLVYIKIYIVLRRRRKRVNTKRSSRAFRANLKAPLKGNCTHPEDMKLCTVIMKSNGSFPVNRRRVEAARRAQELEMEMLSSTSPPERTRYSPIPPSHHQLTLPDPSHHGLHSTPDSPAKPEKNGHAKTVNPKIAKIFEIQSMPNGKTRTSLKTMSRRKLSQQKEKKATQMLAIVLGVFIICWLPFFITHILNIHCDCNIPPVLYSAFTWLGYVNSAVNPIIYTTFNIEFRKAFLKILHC

The values that follow come from BindingDB's records for doi:10.1176/jnp.8.2.223 (1996).

The Ki is a dissociation constant, usually derived from enzyme kinetics or from competition with a known ligand. A higher Ki goes with a looser hold on the target.

In the case of `CC(C)(C)[C@]1(O)CCN2C[C@H]3c4ccccc4CCc4cccc(c43)[C@@H]2C1`, the affinity corresponds to a Ki of 0.55 nM.
